Test results as given in article PMC5668088, “A phase I clinical trial of binimetinib in combination with FOLFOX in patients with advanced metastatic colorectal cancer who failed prior standard therapy” (Oncotarget, 2017).

Settings: MTD of 45 mg twice daily binimetinib continuous dosing

Structure (SMILES): O=C1[O][Pt]2([NH][C@@H]3CCCC[C@H]3[NH]2)[O]C1=O [Oxaliplatin]
- Difference in oxaliplatin PK with vs without binimetinib: no significant differences
